Data on one compound can be found in ChEMBL document CHEMBL5725680, “Aryl-cyanoguanidine compounds” (2018).

The assay in a line: Scintillation Proximity Assay (SPA) for Detection of SMYD2 Enzymatic Inhibition: SMYD2 inhibitory activities of the compounds described in the present invention were quantified using a scintillation proximity assay (SPA) which measures methylation by the enzyme of the synthetic, biotinylated peptide Btn-Ahx […] (SEQ ID NO: 3) Amid x TFA (Biosyntan) derived from p53 and referred to from here on as p53 Peptide. […] To this end, 100-fold concentrated compound solutions (in DMSO) were previously prepared by serial dilution (1:3.4) of 2 mM stocks in a clear low volume 384-well source microtiter plate (Greiner Bio-One), from which 50 nl of compound solutions were transferred into a white low volume test microtiter plate from the same supplier. Subsequently, 2.5 μl SMYD2 in aqueous assay buffer [50 mM Tris/HCl pH 9.0 (AppliChem), 1 mM dithiothreitol (DTT, Sigma), 0.01% (w/v) bovine serum albumine (BSA, Sigma), 0.0022% (v/v) Pluronic (Sigma)] were added to the compounds in the test plate to a final enzyme concentration of typically 3 nM (this parameter was adjusted depending on the activity of the enzyme lot in order to be within the linear dynamic range of the assay). […].

As for `CCN(C(=O)CO)C1CN(/C(=N\C#N)Nc2cc(OC(F)F)ccc2OC)N=C1c1ccc(Cl)c(Cl)c1` (single isomer, unassigned), the IC50 was > 20 µM.
